Experimental data from ChEMBL document CHEMBL1614629, “Extrapolation of human pharmacokinetic parameters from rat, dog, and monkey data: Molecular properties associated with extrapolative success or failure” (J Pharm Sci, 2005).
This is a selection: effects in other tests are not listed, and their absence says nothing.

Experiments:
[1] = Clearance in human after iv administration; type: ADME, organism-based; settings: in vivo
[2] = Volume of distribution at steady state in dog after iv administration; type: ADME, organism-based, Canis lupus familiaris; settings: in vivo
[3] = Volume of distribution at steady state in monkey after iv administration; type: ADME, organism-based; settings: macaca, in vivo
[4] = Clearance in dog after iv administration; type: ADME, organism-based, Canis lupus familiaris; settings: in vivo
[5] = Volume of distribution at steady state in human after iv administration; type: ADME, organism-based; settings: in vivo
[6] = Clearance in rat after iv administration; type: ADME, organism-based; settings: in vivo
[7] = Clearance in monkey after iv administration; type: ADME, organism-based; settings: macaca, in vivo

## CCC(=O)N(c1ccccc1)C1(COC)CCN(CCn2nnn(CC)c2=O)CC1
[1]
  clearance: 6.7 mL/min/kg
[2]
  Vdss: 0.6 L/kg
[3]
  Vdss: 1.1 L/kg
[4]
  clearance: 19 mL/min/kg
[5]
  Vdss: 0.8 L/kg
[6]
  clearance: 50 mL/min/kg
[7]
  clearance: 24 mL/min/kg
